Glioma ERSR ind = induces the endoplasmic reticulum stress response in human glioma cells. U87-MG GRP78 promoter luciferase reporter, 16 h. Potency, µM, usual class: activators. 0.02% of 420,000 active. AID 602332; note: series mostly up to about 76 µM; nearly all actives have a fitted effect of over 35% in size
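Stably transfected U87-MG human glioma cells carrying a GRP78-based luminescent sensor were seeded at 1000 cells/well, pin-dosed with compounds and incubated 16 h. Luciferase reagent was then added, and end-point luminescence was read after 10 min at room temperature.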
Nrf2 ARE act = Nrf2 pathway activation. AREc32 ARE-luciferase reporter (MCF7-derived line), luminescence, 24 h. Potency, µM (doses to about 46.1 µM), usual class: activators. 0.31% of 410,000 active. AID 624171; note: nearly all actives have a fitted effect of over 65% in size
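ARE-driven firefly luciferase activity in AREc32 cells measured after a 24 hr compound exposure at 37 deg C, using Steady-Glo reagent and a 30 min room-temperature hold.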
Nrf2 block = Nrf2 pathway inhibition; A549 ARE-Fluc reporter, luciferase luminescence, 18-24 h; 2.1% of 360,000 active; Potency, µM (top dose mostly 46 µM), hits mostly inhibitors; note: nearly all actives have a fitted effect of over 60% in size
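Nrf2 activity is the BugLite luminescence, read 15 min after reagent at room temperature, following CellTiter-Fluor cytotoxicity readout (30 min, 37C). Compound titrations were applied for 18-24 h to 5000 A549 ARE_Fluc cells/well in 5% FBS OPTI-MEM.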
miR-21 reporter = raises the signal of a miR-21 reporter | HeLa miR-21 FLuc reporter, luciferase, 48 h | Potency, µM (doses to about 38.3 µM) | 340,000 tested, under 10 active | AID 2288; active = well fitted rising curve with a large enough effect; inconclusive = small, poorly fitted or top-dose-only effect; inactive = no such curve, though single readings can be large or run the other way;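 also: miR-21 action dims this reporter so a rising signal means less miR-21 action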
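HeLa cells stably expressing CMV-driven firefly luciferase with a downstream miR-21 binding sequence, endogenously expressing miR-21, were treated with titrations (up to about 40uM final) for 48 hours at 37 degree Celsius. Luciferase luminescence was read after lysis.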
Mito fusion act = mitochondrial division inhibition or fusion activation | 0.23% of 320,000 active | AID 485298 | Potency, µM (titrated, usually from 46.1 µM), usual class: activators | S. cerevisiae fusion-defective mutant growth rescue, CellTiterGlo 48 h; note: nearly all actives have a fitted effect of over 45% in size
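Compounds are tested for their ability to restore growth of mitochondrial fusion-defective yeast strains at non-permissive 37C in YPEG medium over 48 hours. Viability is quantified by luciferase luminescence.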
A549 tox = kills or reduces viability of A549 cells in Nrf2 counter-screen | A549 ARE-Fluc cells, CellTiter-Fluor viability, 18-24 h | Potency, µM (top dose mostly 46 µM), usual class: inhibitors | 0.16% of 390,000 active | AID 504648
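A549 ARE_Fluc cells in 5% FBS OPTI-MEM were exposed to compounds in concentration-response for 18-24 h at 37 deg C. Viability was read by CellTiter-Fluor fluorescence (Ex 405/Em 525) after 30 min, before the luciferase read.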
Of the large screens only hits and unclear results are named; the others gave an inactive call. Sampled rows, rich in hits. Any-hit rate of the full collection: about 2.3%. Unless noted, calls come from the whole dose curve; as a rule, active = well fitted curve in the direction sought with a large enough effect; inconclusive = small, poorly fitted or top-dose-only effect, or another doubt; inactive = no such curve, though single readings can be large; an effect the other way counts as inactive or inconclusive.

CCN1C(=O)/C(=C\C=C\c2ccccc2[N+](=O)[O-])SC1=S	Nrf2 ARE act 5µM, A549 tox inconclusive
O=C1/C(=C/c2ccc(O)c([N+](=O)[O-])c2)SC(=S)N1Cc1ccccc1	none
COc1cc([N+](=O)[O-])cc(/C=C2/SC(=S)N(Cc3ccccc3)C2=O)c1O	Nrf2 block 21µM
O=C1/C(=C\c2cccc([N+](=O)[O-])c2O)SC(=S)N1Cc1ccccc1	Nrf2 block 16µM, miR-21 reporter inconclusive, A549 tox inconclusive
COc1cc(/C=C2\SC(=O)N(Cc3ccc(Cl)cc3)C2=O)cc([N+](=O)[O-])c1O	Nrf2 block 15µM, A549 tox 15µM
COc1cc(/C=C2/SC(=S)N(Cc3ccccc3)C2=O)cc(Cl)c1O	Nrf2 block inconclusive, A549 tox inconclusive
O=C(/C=C/c1ccccc1)NC(=S)NNC(=O)c1cnccn1	Glioma ERSR ind inconclusive, Nrf2 block 7.3µM
COC(=O)c1sccc1NC(=O)c1ccc(C)cc1	Nrf2 block inconclusive
COC(=O)c1sccc1NC(=O)Nc1ccc(C)c(C)c1	Nrf2 ARE act inconclusive, Nrf2 block inconclusive
Cc1cc(C(=O)Nc2ccc(Br)cc2)cs1	Nrf2 ARE act 11µM, Nrf2 block inconclusive
COC(=O)c1sccc1NC(=O)c1csc(C)c1	Nrf2 ARE act 5µM, A549 tox inconclusive (no result: Nrf2 block)
CCc1ccc(NC(=O)Nc2ccsc2C(=O)OC)cc1	Nrf2 ARE act 13µM, Nrf2 block inconclusive
Cc1cc(C(=O)Nc2ccccc2[N+](=O)[O-])cs1	Nrf2 ARE act 11µM, Nrf2 block inconclusive
CNS(=O)(=O)c1ccc(NC(=O)c2csc(C)c2)cc1	Nrf2 block inconclusive
Cc1ccc(S(=O)(=O)N2CCC(=O)N([C@H](CO)Cc3ccccc3)CC2)cc1	none (no result: Glioma ERSR ind, Nrf2 block, miR-21 reporter, Mito fusion act, A549 tox)
COC(=O)c1sccc1NC(=O)c1c(Cl)cccc1Cl	Nrf2 block inconclusive
COC(=O)c1sccc1NC(=O)c1cccc(Cl)c1	Nrf2 ARE act 8.9µM (no result: miR-21 reporter, Mito fusion act)
CCc1ccc[n+](-c2[nH]c(=O)sc2/C=N/NC([S-])=Nc2ccccc2)c1	none
CCc1cc(=O)oc2c(C)c(OCC(=O)N3CCCc4ccccc43)ccc12	Nrf2 block 12µM
CCc1cc(=O)oc2cc(OCC(=O)N3CCc4ccccc43)ccc12	none (no result: Glioma ERSR ind, Nrf2 ARE act, Nrf2 block, A549 tox)
Cc1cccc(N2CCN(C(=O)COc3ccc4c(C)cc(=O)oc4c3C)CC2)c1C	Nrf2 block 16µM
Cc1ccc(C)c(OCCn2cc(/C=C(\C#N)C(=O)NCc3cccs3)c3ccccc32)c1	none
Cc1ccc(S(=O)(=O)N2CCCC(C(=O)NNCC(=O)Nc3cc(F)ccc3F)C2)cc1 (stereo not drawn)	Nrf2 block inconclusive
CCc1cccc(C)c1NC(=O)CCCN1C(=O)C(c2ccccc2)Oc2cccnc21 (stereo not drawn)	none (no result: Mito fusion act)
Cc1cccc(C)c1NC(=O)CCCN1C(=O)C(c2ccccc2)Oc2cccnc21 (stereo not drawn)	Mito fusion act 13µM
COc1ccc(CNC(=O)CN2C(=O)C(c3ccccc3)Oc3cccnc32)cc1 (stereo not drawn)	Nrf2 block 23µM, A549 tox inconclusive
CCn1nc(C(=O)OCC(=O)NCCN2C(=O)CSC2=O)c2ccccc2c1=O	none
CC1CC1c1ccc(/C=C(\C#N)C(=O)Nc2ccc(Cl)cc2)o1 (stereo not drawn)	Nrf2 ARE act 6.3µM, Nrf2 block inconclusive
CC1CC1c1ccc(/C=C(\C#N)C(=O)Nc2ccccc2Cl)o1 (stereo not drawn)	Nrf2 ARE act 13µM
CCc1ccccc1NC(=O)/C(C#N)=C/c1ccc(Sc2ccccc2)o1	Mito fusion act 11µM
N#C/C(=C/c1ccc(N2CCCCC2)o1)C(=O)Nc1ccc(Cl)cc1	none (no result: Nrf2 block)
CCc1ccccc1NC(=O)/C(C#N)=C\c1ccc(Sc2ccccc2)o1	none
O=C(Nc1cc(S(=O)(=O)N2CCOCC2)ccc1OCC(F)(F)F)C1=COCCO1	Nrf2 block inconclusive (no result: miR-21 reporter)

Screening data deposited in PubChem by National Center for Advancing Translational Sciences (NCATS).
